Laboratory results: published antibiotic growth screens (doi:10.1038/s41589-023-01349-8)
This is one part of the list.

Test system: A. baumannii ATCC 17978
Assay: relative growth (fraction of control); higher = less inhibition
Conditions: 50 µM

SMILES	relative growth
NCc1c[nH]nc1-c1ccccc1	0.855
CC(=O)OCC(=O)[C@@]1(O)CCC2C3CCC4=CC(=O)CC[C@]4(C)C3[C@@H](O)C[C@@]21C (some centres not stated)	0.985
N#CCSc1n[nH]c(=O)[nH]c1=O	0.946
CNC(=O)c1cc(S(=O)(=O)N(C)C[C@@H]2Oc3ccc(NC(=O)Nc4ccc(F)cc4)cc3CC(=O)N([C@@H](C)CO)C[C@@H]2C)cs1	0.837
Cc1cc(N)n(-c2nc(=O)cc(C)[nH]2)n1	0.898
Cn1cc(S(=O)(=O)N2CCN(Cc3ccccc3)CC2)c(=O)n(C)c1=O	1.16
Cl.NC(CO)C(=O)NNCc1ccc(O)c(O)c1O (configuration not stated)	0.985
O=S(=O)(NCCCCN(C/C=C/c1ccc(F)cc1)C/C=C/c1ccc(F)cc1)c1cccc2cnccc12	1.16
CN(Cc1cnc2nc(N)nc(N)c2n1)c1ccc(C(=O)NC(CCC(=O)O)C(=O)O)cc1.O (configuration not stated)	1.07
O=C(O)Cn1cc2c(n1)CCCC2	1.05
O=c1[nH]cc(NCc2ccccc2)c(=O)[nH]1	1.03
c1ccc(-n2ncc3c2ncn2nnnc32)cc1	1.01
Nc1cc(-c2ccncc2)c[nH]c1=O	1.14
NC(=O)Nc1nc2ccccc2[nH]c1=O	0.929
COCCOC(=O)N1C(=O)[C@@]2(c3cc(C#Cc4ccc(OC)cc4)ccc31)[C@H](c1ccccc1OCCO)N1[C@H](c3ccccc3)[C@H](c3ccccc3)OC(=O)[C@H]1[C@@H]2C(=O)N1CCc2cc(OC)c(OC)cc2C1	1.06
Cc1ccc(/C=N/Nc2cnnc(=O)[nH]2)o1	1.03
O=C(NCCO)c1nc(NCCO)c2ccccc2n1	1.03
Cc1nnnn1CC(=O)Nc1ccc(F)cc1	0.957
CC1(C)C[C@H](n2[nH]c(=O)cc2N)CCO1	0.89

SMILES	relative growth
COc1cccc(C#Cc2ccc3c(c2)O[C@H](CN(C)C(=O)CN2CCOCC2)[C@H](C)CN([C@H](C)CO)S3(=O)=O)c1	0.827
C=CCNc1nc(C)nc(OC)n1	1.05
Cc1cccc(S(=O)(=O)N2C[C@H](O)COC[C@H]3O[C@@H](CC(=O)N4CCN(C)CC4)CC[C@@H]32)c1	1.16
Cn1c[n+](NC(=O)c2ccc(C(=O)ON3C(=O)CCC3=O)cc2)cn1	1.01
CCS(=O)(=O)Nc1ccc2c(c1)C(=O)N(C)C[C@H](OC)[C@H](C)CN(Cc1ccccn1)[C@H](C)CO2	0.944
CCCCCCCCC(=O)O	1.05
C[C@H]1CN([C@@H](C)CO)S(=O)(=O)c2ccc(C#CCN(C)C)cc2O[C@@H]1CN(C)Cc1ccccn1	1.04
COC(=O)C[C@@H]1C(C)(C)[C@H](OC(C)=O)[C@@H]2[C@@H](OC(C)=O)[C@]34O[C@@]2(O)[C@]1(C)[C@H]3CC[C@]1(C)C4=CC(=O)O[C@H]1c1ccoc1	1.02
S=C(c1cccs1)N1CCCC1	0.984
Cc1c(C)c(C)c(CSc2ccccc2N)c(C)c1C	0.989
Cn1cnc(CCNC(=O)C[C@H]2CC[C@H]3[C@@H](COC[C@H](O)CN3C(=O)Nc3ccc(Cl)cc3)O2)c1	0.901
OC[C@H]1O[C@H](OC[C@H]2O[C@@H](O)[C@H](O)[C@@H](O)[C@@H]2O)[C@H](O)[C@@H](O)[C@H]1O	1.23
O=C(NO)c1cccc(C(=O)N/N=C/[C@H](O)[C@@H](O)[C@@H](O)[C@H](O)CO)c1	1
COC(=O)Cc1cc(=O)n(-c2ccccc2)[nH]1	0.963
COCC(=O)N1C[C@H](C)[C@H](OC)CN(C)C(=O)c2ccc(NC(=O)c3ccc(OC)cc3)cc2OC[C@@H]1C	0.987
CC(=O)OC1CCC2(C)C(=CC=C3C2CCC2(C)C3CCC2C(C)/C=C/C(C)C(C)C)C1(C)C (configuration not stated)	1.31
CN(C=O)CP(=O)(O)CN1CCCCC1	1.1
C[C@@H]1CNC(=O)CCO1	1.15
CC(C)C#Cc1ccc2c(c1)O[C@H](CN(C)C(=O)c1cnccn1)[C@@H](C)CN([C@@H](C)CO)S2(=O)=O	0.92

SMILES	relative growth
CNCCCN1c2ccccc2CCc2ccccc21.Cl	0.908
C[C@@H]1CN([C@@H](C)CO)S(=O)(=O)c2ccc(C#C[C@@H](C)O)cc2O[C@@H]1CN(C)C(=O)C1CCCCC1	0.865
COC(=O)c1ccc([C@H]2C=C(C(=O)N3CCOCCOCCOCCOCC3)O[C@@H](OCCCCO)C2)cc1	1.18
CCC(C)[C@H]1O[C@]2(CC[C@@H]1C)C[C@@H]1C[C@@H](C/C=C(\C)[C@@H](OC3C[C@H](OC)C(O[C@H]4C[C@H](OC)[C@@H](O)[C@H](C)O4)[C@H](C)O3)[C@@H](C)/C=C/C=C3\CO[C@@H]4[C@H](O)C(C)=C[C@@H](C(=O)O1)[C@]34O)O2 (some centres not stated)	0.868
N[C@@H]1CCCN(Cc2ccncc2)[C@H]1c1ccccc1F	1.01
N[C@@H](Cc1cc(I)c(Oc2cc(I)c(O)c(I)c2)c(I)c1)C(=O)[O-].[Na+]	0.946
NC[C@H]1O[C@H](O[C@H]2C(O[C@@H]3O[C@H](CO)[C@@H](O)[C@H]3O)[C@@H](O)[C@H](N)C[C@@H]2N)[C@H](N)[C@@H](O)[C@@H]1O.O=S(=O)(O)O (some centres not stated)	1.01
CCNC(=S)N1CCC[C@H](C(N)=O)C1	0.963
Cc1c(NC(C)C)c(=O)n(-c2ccccc2)n1C.Cl	1.2
CN1C[C@H](O)COC[C@H]2O[C@H](CC(=O)N3CCN(c4ccccc4)CC3)CC[C@@H]21	1.04
CC(=O)NCC(=O)O.CC(=O)NCC(=O)O.N=C(N)c1ccc(/N=N/Nc2ccc(C(=N)N)cc2)cc1	1.02
O=C1O[C@H](c2ccccc2)[C@H](c2ccccc2)N2[C@H]1[C@@H](C(=O)NC[C@@H](O)c1ccccc1)[C@]1(C(=O)Nc3ccc(C#CC4=CCCCC4)cc31)[C@H]2c1ccccc1OCCO	1.11
NC(N)=O	1.01
Cn1cnc(S(=O)(=O)N2C[C@H](O)COC[C@H]3O[C@@H](CC(=O)NC4Cc5ccccc5C4)CC[C@@H]32)c1	1.07
Cn1c([N+](=O)[O-])cnc1COC(N)=O	0.175
C[C@H]1CNCCO1	1.12
C=C(C)[C@H]1CC=C(C(=O)O)CC1	1.02
Nc1cccc(/C=C/c2ccccn2)c1	0.881
CC(C)CC#Cc1ccc2c(c1)O[C@@H](CN(C)C(=O)NC1CCCC1)[C@@H](C)CN([C@@H](C)CO)S2(=O)=O	1.01
